Results reported in patent US5932607A, “Imidazole derivatives and process for preparing the same” (Kyorin Pharmaceutical Co., Ltd., priority 1993, dated 1999).

Chains of the proteins cited; added tags and fusions are not shown. Residues count along the entry.
UniProt H0W1Z3, 1-590: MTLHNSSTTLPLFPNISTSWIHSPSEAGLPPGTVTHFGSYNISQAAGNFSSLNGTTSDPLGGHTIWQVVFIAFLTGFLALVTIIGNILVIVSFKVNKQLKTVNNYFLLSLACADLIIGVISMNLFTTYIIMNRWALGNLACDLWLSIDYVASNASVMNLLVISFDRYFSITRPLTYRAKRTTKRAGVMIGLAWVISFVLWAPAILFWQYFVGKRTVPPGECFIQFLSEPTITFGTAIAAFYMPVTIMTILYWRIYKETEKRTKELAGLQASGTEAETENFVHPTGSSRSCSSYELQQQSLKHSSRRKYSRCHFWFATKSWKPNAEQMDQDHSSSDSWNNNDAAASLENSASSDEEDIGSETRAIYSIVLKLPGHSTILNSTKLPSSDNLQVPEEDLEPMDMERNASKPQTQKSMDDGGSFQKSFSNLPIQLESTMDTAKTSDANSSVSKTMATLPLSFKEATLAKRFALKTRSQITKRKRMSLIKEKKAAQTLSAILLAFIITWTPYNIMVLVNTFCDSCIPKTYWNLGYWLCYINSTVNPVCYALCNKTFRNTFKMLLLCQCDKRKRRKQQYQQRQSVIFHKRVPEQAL
UniProt H0VRN8, 1-466: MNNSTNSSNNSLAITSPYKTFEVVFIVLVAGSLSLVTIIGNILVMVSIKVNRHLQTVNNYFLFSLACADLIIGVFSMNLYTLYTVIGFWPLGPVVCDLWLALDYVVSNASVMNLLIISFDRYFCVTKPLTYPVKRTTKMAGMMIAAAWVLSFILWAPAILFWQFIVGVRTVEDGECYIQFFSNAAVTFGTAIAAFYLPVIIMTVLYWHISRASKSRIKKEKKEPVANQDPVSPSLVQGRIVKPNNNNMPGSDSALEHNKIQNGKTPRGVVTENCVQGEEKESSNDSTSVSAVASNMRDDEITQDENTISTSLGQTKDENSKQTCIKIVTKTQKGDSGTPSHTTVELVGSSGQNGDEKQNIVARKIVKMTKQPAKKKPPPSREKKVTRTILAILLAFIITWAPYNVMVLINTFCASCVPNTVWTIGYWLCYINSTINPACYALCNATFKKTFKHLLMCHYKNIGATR

How the values were obtained:
[1] = target: T1, muscarinic receptor (ileum) (Cavia porcellus, UniProt H0W1Z3); test: Anticholinergic action in guinea-pig ileum (antagonism of ACh response, Schild method); assay type: cell-based, guinea pig (male Hartley); conditions: Tyrode solution, 32° C., test compound 5 min. before ACh, read-out: Anticholinergic activity (pA2) Ileum (converted)
T1 construct: from tissue; host or cells: guinea-pig ileal segments (male Hartley)
Description: (§1) 1. Anticholinergic action in guinea-pig ileum and atria Male Hartley guinea pigs were sacrificed by blowing on the head and bleeding.
Responses to acetyllchlloline (ACh) added cumulatively to the baths were isotonically recorded under a tension of 1 g. Dose-response curves of ACh were determined in the absence and presence of test compounds in various concentrations added to the baths 5 min. before ACh application.

[2] = target: T2, muscarinic receptor (atrium, cardiac) (Cavia porcellus, UniProt H0VRN8); test: Anticholinergic action in guinea-pig atria (antagonism of ACh response, Schild method); assay type: cell-based, guinea pig (male Hartley); conditions: Table 8; isolated atria, Tyrode solution, 32° C., 10 min. equilibration; read-out: Anticholinergic activity (pA2) Atrium (converted)
T2 construct: from tissue; host or cells: guinea-pig isolated atria (male Hartley)
Description: as §1
The isolated atria were suspended under 0.5 g tension in organ baths containing Tyrode solution gassed with 95% O2 and 5% CO2 at 32° C.
Dose-response curves were obtained by cumulative addition of ACh and repeated in the presence of various concentrations of test compounds, allowing 10 min. equilibration time.
The affinity of test compounds were determined as described for ileum.

- Kb [1]: 0.0692 nM
- Kb [2]: 1.32 nM
SMILES: Cc1nccn1CCC(C(N)=O)(c1ccccc1)c1ccccc1 [Example 11, 4-(2-Methyl-1-imidazolyl)-2,2-diphenylbutylamide]
